# Assay results as given in PubChem BioAssay AID1347120 (National Center for Advancing Translational Sciences (NCATS), 2019).
# Only a part is listed here, and it is no random draw. Records with an inconclusive call do not appear. Active and inactive are the calls of the source. The call rests on the fitted dose curve; in most records, active means well fitted activation curve with a large enough effect; inconclusive means small, poorly fitted or top-dose-only effect; inactive means no such curve, though single readings can be large or run the other way.
# Assay: qHTS for Suppressors of FUS Proteinopathy: Primary screen using FUS-linked yeast assay;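 further: plate controls were DMSO vehicle for no effect and reference control for full effect; nearly all actives have a fitted effect of over 55% in size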
# Conditions: S. cerevisiae FUS-expressing, OD600, 24 h; at 76.6 µM (top of the series)
# Excerpt: Several widespread neurodegenerative diseases, including Alzheimer disease, Huntington disease, Frontotemporal Lobar Degeneration (FTLD) and Amyotrophic Lateral Sclerosis (ALS), share a common pathological feature, namely accumulation of specific protein aggregates in diseased tissue. These diseases which is associated with protein misfolding (proteinopathies) have become increasingly problematic as the population ages and life expectancies are extended. Most proteinopathies are currently incurable, a situation confounded by the fact that the basis of neurodegeneration is generally poorly understood. There exists urgent and significant need to find therapeutics that can inhibit the toxicity associated with protein aggregation. A novel approach to understand the underlying mechanisms of neurodegenerative diseases has recently emerged in which the disease conditions are modeled in the yeast (Saccharomyces cerevisiae), a tractable eukaryotic organism with conserved protein quality control mechanisms. Yeast offers quick and reliable genetic manipulations and can be easily tailored to high-throughput screening (HTS).
# For this project, a yeast model of the FUS proteinopathies (a spectrum of neurodegenerative diseases that include ALS and a subtype of FTLD) was generated and employed. The cytoplasmic accumulation of the DNA/RNA-binding protein FUS (also known as TLS) is causative to both familial and sporadic forms of ALS and FTLD. This yeast model recapitulates neuronal pathology by showing severe cytotoxicity associated with cytoplasmic accumulation of FUS aggregates and a specific interaction between FUS and TDP-43, another ALS-associated protein. […] Specifically, the cellular accumulation of misfolded FUS that disrupts RNA homeostasis in both yeast and higher eukaryotes. This model was validated to be suitable for quantitative HTS (qHTS) use for finding genetic or chemical factors that restore growth. […] Identified compounds that inhibits FUS-yeast toxicity is flagged, re-acquired, and validated for further investigation and optimization.
# NIH Chemical Genomics Center [NCGC]
# NIH Molecular Libraries Probe Production Centers Network [MLPCN]
# Assay Submitter (PI): Frank Shewmaker PhD, Uniformed Services University of the Health Sciences
# Compound CP55940 was used as the positive control. Column 1 was treated with CP55940 titration from 92uM (final concentration, 1:2 dilution), while Column 2 was treated with top dose 92uM. Columns 3 and 4 were treated with DMSO only as negative control to assess background and noise signal.
# Four hundred fifty microliter of cultured yeast (in 20mL rich medium) provided by Dr. Shewmaker lab was incubated at 30C at 99% humidity for 3hr. The culture was then spun down at 4000rpm for 5min and the cell pellet was resuspended in 2mL of Sdmin Media + ALU(330) + 2.5% Raffinose. One hundred microliter of the suspension was added to 900uL of water and OD of the solution was obtained. Twenty mL of responding medium (provided by Shewmaker lab) + 2.5% raffinose was added to ensure cell density of 0.1; the solution was incubated overnight. Working cell solution (FUS-yeast in Sdmi + Sdmi + 1X ALU + 2% galactose media) was prepared (final OD at 0.005) and 3uL was dispensed in a 1536-well Aurora high based clear bottom assay plates. Controls and library compounds (at various final concentrations from 40uM to 0.32uM) were added using a 1536-well pin array using the Kalypsys pin-tool. The plates were then incubated for 24hrs in a cell-culture incubator (30C; 99% humidity). Absorbance at 600nm was then read using the PerkinElmer ViewLux plate reader.
row,SMILES,growth rescue (activation)
1,COc1ccccc1OP(C)(=O)Nc1c(C)cccc1C (centres undefined),inactive: 7.46%
2,CN1CCCCC1COC(=O)C1(O)c2ccccc2CCc2ccccc21 (centres undefined),inactive: 7.31%
3,CP(=O)(Nc1ccc(SC(F)(F)F)cc1)Oc1ccccc1 (centres undefined),inactive: 44.4%
4,CCCOc1ccc(NP(C)(=O)Oc2ccc(Cl)cc2)cc1 (centres undefined),inactive: 28.5%
5,COc1ccc(-c2ccccn2)cc1.O=[N+]([O-])c1cc([N+](=O)[O-])c(O)c([N+](=O)[O-])c1,inactive: -5.99%
6,O=[N+]([O-])c1cc([N+](=O)[O-])c(Nc2nnnn2CCO)c([N+](=O)[O-])c1,inactive: -12.2%
7,CC1=C2N=C(C=C3N=C(C(C)=C4[N-][C@@](C)([C@@H]5N=C1[C@](C)(CCC(=O)NC[C@@H](C)OP(=O)([O-])O[C@H]1[C@@H](O)[C@@H](n6cnc7cc(C)c(C)cc76)O[C@@H]1CO)[C@H]5CC(N)=O)[C@@](C)(CC(N)=O)[C@@H]4CCC(N)=O)[C@@](C)(CC(N)=O)[C@@H]3CCC(N)=O)C(C)(C)[C@@H]2CCC(N)=O.[C-]#N.[Co+3],inactive: -16.5%
8,O=[N+]([O-])c1cc([N+](=O)[O-])c(-c2cnn(-c3ccccc3)c2)c([N+](=O)[O-])c1,inactive: -4.52%
9,Cc1nc2ccc3ccccc3c2s1.O=[N+]([O-])c1cc([N+](=O)[O-])c(O)c([N+](=O)[O-])c1,inactive: 2.65%
10,O=[N+]([O-])c1cc([N+](=O)[O-])c(-n2nnc3ccccc32)c([N+](=O)[O-])c1,inactive: 14%
11,CN(Cc1cccnc1)C(=O)COc1ccc(Cl)c(Cl)c1.O=[N+]([O-])c1cc([N+](=O)[O-])c(O)c([N+](=O)[O-])c1,inactive: -8.11%
12,CP(=O)(Nc1cccc(Br)c1)Oc1ccccc1 (centres undefined),inactive: 14.9%
13,Cc1cc(C)cc(OP(C)(=O)Nc2ccccn2)c1 (centres undefined),inactive: -19.7%
14,Cc1ccc(C)c(NP(C)(=O)Oc2ccccc2)c1 (centres undefined),inactive: 16.2%
15,COc1ccccc1OP(C)(=O)Nc1cccc(Br)c1 (centres undefined),inactive: 2.94%
16,Cc1cc(C)cc(OP(C)(=O)Nc2ccc(C)cc2C)c1 (centres undefined),inactive: 35%
17,CCOC(=O)c1ccc(NP(C)(=O)Oc2ccccc2)cc1 (centres undefined),inactive: 7.03%
18,COc1ccccc1OP(C)(=O)Nc1ccc(C)cc1 (centres undefined),inactive: -7.94%
19,Cc1ccc(NP(C)(=O)Oc2ccccc2)c(C)c1 (centres undefined),inactive: 13.2%
20,COc1ccccc1OP(C)(=O)Nc1cc(Cl)ccc1C (centres undefined),inactive: 13.1%
21,COc1ccc(OP(C)(=O)Nc2cccc(F)c2)cc1 (centres undefined),inactive: -4.49%

row,SMILES,growth rescue (activation)
1,Cc1cc(C)cc(OP(C)(N)=O)c1 (centres undefined),inactive: -4.59%
2,O=[N+]([O-])c1cc([N+](=O)[O-])c(Nc2cccnc2)c([N+](=O)[O-])c1,inactive: -34.1%
3,CC(C)(C)c1ccc(OP(C)(=O)Nc2ccc(SC(F)(F)F)cc2)cc1 (centres undefined),inactive: 28.6%
4,Cc1cccc(C)c1OP(C)(N)=O (centres undefined),inactive: -6.01%
5,O=[N+]([O-])c1ccc2c(c1)C=Nc1ccccc1O2,inactive: 30.7%
6,COc1ccccc1-c1ccccn1.O=[N+]([O-])c1cc([N+](=O)[O-])c(O)c([N+](=O)[O-])c1,inactive: -10.9%
7,CCN(CC)CCCOC(=O)C(O)(c1ccccc1)c1ccccc1,inactive: -46.7%
8,CCOP(C)(=S)SCC(=O)NC(C)C(=O)O (centres undefined),inactive: -20.1%
9,CCOC(=O)c1ccc(NP(C)(=O)Oc2ccc(OC)cc2)cc1 (centres undefined),inactive: 21%
10,O=[N+]([O-])c1cc([N+](=O)[O-])c(O)c([N+](=O)[O-])c1.c1ccc(Oc2ccncc2)cc1,inactive: 16.9%
11,CP(=O)(Nc1ccccn1)Oc1ccc(Cl)cc1 (centres undefined),inactive: -25.3%
12,Cc1cccc(C)c1OP(C)(=O)Nc1ccc(SC(F)(F)F)cc1 (centres undefined),inactive: -14.6%
13,CP(=O)(Nc1ccc(SC(F)(F)F)cc1)Oc1ccc(Cl)cc1 (centres undefined),inactive: 37.3%
14,CP(=O)(Oc1ccccc1)OC(c1ccccc1)C(F)(F)F (centres undefined),inactive: -8.19%
15,CCc1ccc(OP(C)(=O)N2CCN(c3ccc([N+](=O)[O-])cc3)CC2)cc1 (centres undefined),inactive: 36%
16,CP(=O)(NC(=O)Nc1ccccc1)Oc1ccccc1 (centres undefined),inactive: -2.97%
17,Cc1cc(C)cc(OP(C)(=O)Nc2ccc(SC(F)(F)F)cc2)c1 (centres undefined),inactive: 14.5%
18,CP(=S)(Nn1cnnc1)Oc1ccccc1 (centres undefined),inactive: -7.3%
19,COc1ccccc1OP(C)(=O)Nc1ccccc1 (centres undefined),inactive: 18.7%
20,CP(=O)(Nc1ccccc1Br)Oc1ccccc1 (centres undefined),inactive: 5.13%
21,Nc1ccc2c(ccc3cccnc32)n1.O=[N+]([O-])c1cc([N+](=O)[O-])c(O)c([N+](=O)[O-])c1,inactive: -3.02%

row,SMILES,growth rescue (activation)
1,CP(=O)(OC12CC3CC(CC(C3)C1)C2)OC12CC3CC(CC(C3)C1)C2,inactive: 21.5%
2,CP(=O)(Nc1ccc(Cl)cc1)Oc1ccc(F)cc1 (centres undefined),inactive: 7.77%
3,CC(C)(C)c1ccc(OP(C)(=O)O)cc1,inactive: 0.361%
4,COc1ccccc1OP(C)(=O)Nc1ccccc1Br (centres undefined),inactive: 2.96%
5,CN(C)C(=O)c1c([N+](=O)[O-])cc([N+](=O)[O-])cc1[N+](=O)[O-],inactive: 8.55%
6,CCN(CC)CC(O)COC(=O)C(O)(c1ccccc1)C1CCCCC1 (centres undefined),inactive: 5.1%
7,COc1ccc(OP(C)(=O)Nc2ccc(Br)cc2)cc1 (centres undefined),inactive: 22.8%
8,CP(=O)(Oc1ccccc1)N1CCOC1=O (centres undefined),inactive: -17.8%
9,CCc1ccc(OP(C)(=O)Nc2cccnc2)cc1 (centres undefined),inactive: 9.57%
10,COc1ccccc1OP(C)(=O)Nc1c(C)n(C)n(-c2ccccc2)c1=O (centres undefined),inactive: -3.64%
11,O=C(OCCCN1CCCC1)C(O)(c1ccccc1)C1CCCCC1 (centres undefined),inactive: 9.72%
12,O=[N+]([O-])c1cc([N+](=O)[O-])c(Nc2ccccn2)c([N+](=O)[O-])c1,inactive: -2.21%
13,Cc1c(NP(C)(=O)Oc2ccc(C(C)C)cc2)c(=O)n(-c2ccccc2)n1C (centres undefined),inactive: 2.18%
14,CCc1ccc(OP(C)(=O)O)cc1,inactive: -4.43%
15,CP(=O)(Nc1ccccn1)Oc1ccccc1 (centres undefined),inactive: 19.1%
16,COc1ccccc1OP(C)(=O)Nc1ccc(C)cc1C (centres undefined),inactive: 9.83%
17,COc1ccccc1OP(C)(=O)Nc1ccc(Br)cc1 (centres undefined),inactive: 13.6%
18,CN(C)CCOC(=O)C(O)(c1ccccc1)C1CCCC1 (centres undefined),inactive: -25.4%
19,COc1ccc(OP(C)(=O)Nc2ccccn2)cc1 (centres undefined),inactive: 6.98%
20,CP(=O)(OCCOc1ccccc1)OCCOc1ccccc1,inactive: -13.5%
21,CP(=O)(Nc1ccc(Cl)cc1Cl)Oc1ccccc1 (centres undefined),inactive: -0.711%

row,SMILES,growth rescue (activation)
1,Cc1cc(C)cc(OP(C)(=O)Nc2cccc(C(F)(F)F)c2)c1 (centres undefined),inactive: 30.6%
2,COc1ccc(OP(C)(=O)Nc2ccccc2Br)cc1 (centres undefined),inactive: 4.53%
3,COc1ccccc1OP(C)(=O)Nc1ccc(C)c(C)c1 (centres undefined),inactive: -12%
4,CCN(CC)CCCOC(=O)C(O)(c1ccccc1)C1CCCCC1 (centres undefined),inactive: -2.08%
5,Cc1c([N+](=O)[O-])cc([N+](=O)[O-])c(Br)c1[N+](=O)[O-],inactive: 15.9%
6,CCCCCOc1ccc(NP(C)(=O)Oc2ccc(Cl)cc2Cl)cc1 (centres undefined),inactive: 33.2%
7,CP(=O)(Nc1ccccc1)Oc1ccc(F)cc1 (centres undefined),inactive: 3%
8,COc1ccc(OP(C)(=O)Nc2ccc(SC(F)(F)F)cc2)cc1 (centres undefined),inactive: 30.7%
9,CCOC(=O)c1ccc(NP(C)(=O)Oc2ccc(F)cc2)cc1 (centres undefined),inactive: 11.9%
10,CP(=O)(Nc1ccccc1F)Oc1ccccc1 (centres undefined),inactive: 2.35%
11,CP(=O)(Nc1ccc2c(c1)OCCO2)Oc1ccccc1 (centres undefined),inactive: 13.6%
12,O=[N+]([O-])c1cc([N+](=O)[O-])c(C(F)(F)F)c([N+](=O)[O-])c1O,inactive: 1.05%
13,Cc1ccccc1NP(C)(=O)Nc1ccccc1C,inactive: -1.57%
14,CP(=O)(Nc1ccc(SC(F)(F)F)cc1)Oc1ccc(F)cc1 (centres undefined),inactive: 4.14%
15,CCOP(C)(=S)SCC(=O)NC(C)(CC)C(=O)O (centres undefined),inactive: 8.57%
16,Cc1cc(-c2cccc3ccccc23)c(C)cn1.O=[N+]([O-])c1cc([N+](=O)[O-])c(O)c([N+](=O)[O-])c1,inactive: 13.6%
17,O=[N+]([O-])c1ccc(OP2(=O)COCCO2)cc1 (centres undefined),inactive: 3.66%
18,Cc1c(C(c2ccc3c(c2)OCO3)c2c(C)n(C)n(-c3ccccc3)c2=O)c(=O)n(-c2ccccc2)n1C.O=[N+]([O-])c1cc([N+](=O)[O-])c(O)c([N+](=O)[O-])c1,inactive: -31%
19,COc1ccc(OP(C)(=O)Nc2cccc(Br)c2)cc1 (centres undefined),inactive: 6.03%
20,COc1ccc(NP(C)(=O)Oc2ccccc2OC)cc1 (centres undefined),inactive: 1.34%
21,CN(C)CCOC(=O)C(O)(c1ccccc1)C1CCCCC1 (centres undefined),inactive: -13.9%
